Assay results from publication PMC10280071, “Allelic variation in the indoleacetic acid-lysine synthase gene of the bacterial pathogen Pseudomonas savastanoi and its role in auxin production” (Frontiers in Plant Science, 2023).

Test system: NCCCC[C@H](N)C(=O)O
Experiment: purified protein
Details: 1 mM IAA fixed, lysine 0.01-10 mM, 1 mM ATP, 3 mM MgCl2, 100 mM KCl, 50 mM Tris-HCl pH 8.0, 25 °C

Work on “IaaLPsn-1 (Pseudomonas savastanoi pv. nerii)” yielded a Km of 1487 ± 431 µM, a Vmax of 0.0107 µmol/min/mg and a Vmax/Km of 7.2 µL/min/mg.
